One assay relates to eggplant leaf-discs. Briefly: Phytohormone treatment, root production from eggplant leaf-discs. The settings on record: IBA 0.1, 1.0 and 10 mg/L in GB+GBV. The procedure:
(§1) • 1. Leaf-discs (2.7-cm in diameter) were cut from Brassica leaves (Leaf #2, leaf #3) or eggplant leaves (see above). • 2. Three leaf-discs were placed on a specific media (see Tables 6 and 7 below), covered with a mesh lid, sealed with parafilm, and incubated agar side up. • 3. The discs were placed in Incubator B (higher humidity, higher light). Plates were covered with two fabric screens. • 4. Discs were assessed daily for leaf-disc growth, disc color, fungal contamination of agar or disc, agar depth (to determine date of transfer), and presence of calli or roots (number of root sites and number of roots/site). • 5. Discs were transferred to fresh media as needed (usually 7-8 d).

The test system of the next assay is Brassica leaf-discs. Briefly: Phytohormone treatment, calli and root production from Brassica leaf-discs. Here is the method:
as §1

For Indole butyric acid, the “effect on root production in eggplant” value with eggplant leaf-discs was “did not significantly enhance or accelerate root production”. In addition, the “time on IBA plates that may be sufficient to accelerate root production” value in the assay with Brassica leaf-discs (10 mg/L IBA plates) was found to be 1 days. In addition, in the assay with Brassica leaf-discs (GB+GBV with IBA 0.1-10 mg/L vs 0 (control)), the “effect on production of roots from Brassica leaf-discs” value was “enhanced and accelerated the production of roots”.

The values above are taken from patent US12245576B2, “Method for genetic manipulation of sap-feeding insects” (The Regents of the University of California, priority 2018, dated 2025).
